Reference: PMC10006343 (ACS Infectious Diseases, 2023)

By UniProt entry, the sequences of proteins in these tests, tags left out. Where a name states a change or a piece, a line headed by the entry shows the natural chain unless it says otherwise. Residues count along the entry.
UniProt P9WG45: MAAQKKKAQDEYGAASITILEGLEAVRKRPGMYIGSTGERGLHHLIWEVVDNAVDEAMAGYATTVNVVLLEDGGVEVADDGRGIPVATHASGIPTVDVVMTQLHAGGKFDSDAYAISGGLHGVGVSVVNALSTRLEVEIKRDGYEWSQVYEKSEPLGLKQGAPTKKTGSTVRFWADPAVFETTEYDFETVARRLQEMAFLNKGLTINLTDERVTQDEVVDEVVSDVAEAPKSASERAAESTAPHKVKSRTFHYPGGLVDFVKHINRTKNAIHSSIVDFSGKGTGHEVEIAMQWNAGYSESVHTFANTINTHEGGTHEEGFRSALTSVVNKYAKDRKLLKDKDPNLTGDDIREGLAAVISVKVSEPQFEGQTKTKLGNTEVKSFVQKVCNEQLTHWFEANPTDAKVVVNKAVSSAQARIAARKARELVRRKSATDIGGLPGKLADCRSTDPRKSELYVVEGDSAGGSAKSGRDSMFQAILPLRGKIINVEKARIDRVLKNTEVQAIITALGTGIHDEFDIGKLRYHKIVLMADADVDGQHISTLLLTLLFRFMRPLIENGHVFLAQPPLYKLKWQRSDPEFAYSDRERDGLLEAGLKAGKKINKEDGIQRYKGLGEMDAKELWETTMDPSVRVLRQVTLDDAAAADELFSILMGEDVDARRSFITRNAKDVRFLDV
UniProt P9WG47, 2-838: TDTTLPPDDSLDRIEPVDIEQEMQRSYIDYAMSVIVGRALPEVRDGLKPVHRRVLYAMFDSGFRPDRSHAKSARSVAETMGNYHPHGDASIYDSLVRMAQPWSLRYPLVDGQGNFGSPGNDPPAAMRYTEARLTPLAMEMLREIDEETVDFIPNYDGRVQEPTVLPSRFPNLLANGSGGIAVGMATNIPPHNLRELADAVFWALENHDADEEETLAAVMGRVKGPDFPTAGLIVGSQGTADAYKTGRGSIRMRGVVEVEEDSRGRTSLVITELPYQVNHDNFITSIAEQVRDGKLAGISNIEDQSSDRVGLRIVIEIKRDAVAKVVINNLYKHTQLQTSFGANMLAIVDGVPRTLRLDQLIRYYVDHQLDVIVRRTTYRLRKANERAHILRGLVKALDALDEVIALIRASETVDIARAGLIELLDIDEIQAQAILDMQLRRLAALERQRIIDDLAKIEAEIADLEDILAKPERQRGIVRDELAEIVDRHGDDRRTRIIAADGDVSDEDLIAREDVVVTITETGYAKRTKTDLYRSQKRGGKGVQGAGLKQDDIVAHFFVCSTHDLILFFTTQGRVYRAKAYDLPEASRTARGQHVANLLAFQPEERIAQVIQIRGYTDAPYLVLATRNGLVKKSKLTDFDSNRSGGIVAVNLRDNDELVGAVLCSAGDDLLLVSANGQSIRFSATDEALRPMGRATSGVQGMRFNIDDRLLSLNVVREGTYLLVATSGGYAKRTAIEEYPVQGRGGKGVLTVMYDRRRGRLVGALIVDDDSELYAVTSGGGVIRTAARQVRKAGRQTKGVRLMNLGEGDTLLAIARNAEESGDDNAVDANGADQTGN

Molecular target: M. tuberculosis gyrase (GyrA/GyrB) (Mycobacterium tuberculosis, UniProt P9WG45+P9WG47)

| SMILES | DNA cleavage assay with purified gyrase |
| --- | --- |
| C[C@@H]1CN2c3c(cc4c(N5CC[C@H](O)C5)noc4c3F)CC3(C(=O)NC(=O)NC3=O)[C@H]2[C@H](C)O1 [compound 4882, H3D-004882] | The related SPTs, H3D-004882 and H3D-005709 (which differ at the R2 position), also induced gyrase-mediated DNA cleavage. |
| C[C@@H]1CN2c3c(cc4c(N5CC[C@H](O)C5)noc4c3F)CC3(C(=O)NC(=O)NC3=O)[C@H]2[C@H](C)N1C#N [compound 4912, H3D-004912] | In both cases, the presence of the amino-cyano group enhanced the activity of the parent compound |
| C[C@@H]1CN2c3c(cc4c(OCCCO)noc4c3F)CC3(C(=O)NC(=O)NC3=O)[C@H]2[C@H](C)O1 [compound 5709, H3D-005709] | The related SPTs, H3D-004882 and H3D-005709 (which differ at the R2 position), also induced gyrase-mediated DNA cleavage. |
